# Antibody variant affinities, Ab-14 heavy chain, assay 1

Reference: Engelhart et al. 2022, doi:10.1038/s41597-022-01779-4. File: FLAb, binding data.

The target is the same throughout: PDVDLGDISGINAS, from the HR2 region of SARS-CoV-2 spike.

Parent: Ab-14, a human scFv built as VH, a 15-residue (Gly4Ser)3 linker, VL. Only the CDRs of the heavy chain vary.
VH: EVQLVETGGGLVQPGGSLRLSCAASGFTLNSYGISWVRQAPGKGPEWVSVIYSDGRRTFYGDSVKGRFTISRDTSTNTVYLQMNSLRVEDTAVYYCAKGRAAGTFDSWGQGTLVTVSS
VL: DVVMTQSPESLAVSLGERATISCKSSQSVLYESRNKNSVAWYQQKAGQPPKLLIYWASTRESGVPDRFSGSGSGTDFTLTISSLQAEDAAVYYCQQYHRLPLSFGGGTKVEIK

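The starting antibody came from a phage panning campaign against this peptide. In library AAYL49, one, two or three CDR residues were substituted; doubles and triples were drawn at random. The assay is AlphaSeq: two haploid yeast populations carry antibody and antigen on their surface. The frequency of each diploid, read from paired DNA barcodes, reflects how well the two displayed proteins bind. Read counts were normalised to the haploid input and turned into Kd by a linear fit to BCL2-family pairs of known affinity, for each replicate. There are three technical replicates.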

Positions count from residue 1 of the parent VH; G55C puts C in place of G.
Every variant below is changed at G55 of the VH (sequential numbering).
Values are apparent Kd, the geometric mean of the replicates that gave a signal; lower means stronger binding.
An entry "no signal" has no value in the source: the pair was not observed among the diploids in any replicate. This suggests poor binding but is not conclusive.

* G55C = no signal (0 of 3 replicates)
* I51R G55A G61T = no signal (0 of 3 replicates)
* G26N G55M T58V = 5.0 µM (3 of 3 replicates)
* N30R Y32Q G55S = no signal (0 of 3 replicates)
* G26W G55W T104C = 17 µM (2 of 3 replicates)
* Y32E G55H A102I = no signal (0 of 3 replicates)
* G55L S107P = 73 µM (1 of 3 replicates)
* S35A G55P G103V = no signal (0 of 3 replicates)
* G26S G55F = 21 µM (2 of 3 replicates)
* G55L Y60E S63G = no signal (0 of 3 replicates)
* G55W Y60C V64F = no signal (0 of 3 replicates)
* Y32R G55S K65E = no signal (0 of 3 replicates)
* G55K R57Q T104K = no signal (0 of 3 replicates)
* G55C Y60P G103Q = 54 µM (1 of 3 replicates)
* G55R A102L S107Q = no signal (0 of 3 replicates)
* D54F G55C T58A = 52 µM (1 of 3 replicates)
* I51H G55C S63G = 25 µM (1 of 3 replicates)
* Y52F S53Q G55L = 60 µM (2 of 3 replicates)
* N30W G55M D106K = 15 µM (2 of 3 replicates)
* G26T Y52R G55C = no signal (0 of 3 replicates)
* N30H G55P = 790 nM (1 of 3 replicates)
* G55R D62I S63G = 630 nM (1 of 3 replicates)
* S35M V50C G55N = no signal (0 of 3 replicates)
* F27Y S35E G55K = 3.2 µM (2 of 3 replicates)
* S31Y D54Q G55R = 160 µM (1 of 3 replicates)
* G55C S63Y = 41 µM (2 of 3 replicates)
* G55S G61Y K65A = no signal (0 of 3 replicates)
* S31Y G55I R56K = no signal (0 of 3 replicates)
* G55H G61I A102H = no signal (0 of 3 replicates)
* G55Q K65N R100T = 14 µM (1 of 3 replicates)
* T28M Y52K G55F = 4.6 µM (3 of 3 replicates)
* S31R I51G G55L = no signal (0 of 3 replicates)
* G55D R57W K65S = no signal (0 of 3 replicates)
* G55W T58H F59C = no signal (0 of 3 replicates)
* T28P G55Y V64R = 44 µM (2 of 3 replicates)
* D54V G55Q S63F = no signal (0 of 3 replicates)
* D54S G55Y T58M = 170 µM (1 of 3 replicates)
* T28G D54A G55M = 610 nM (1 of 3 replicates)
* G55R V64E = no signal (0 of 3 replicates)
* S53G G55M G61R = no signal (0 of 3 replicates)
* N30D G55W F59K = 8.5 µM (1 of 3 replicates)
* F27Q V50T G55Y = 3.4 µM (1 of 3 replicates)

3 of these entries, quoted again:

changes	Kd	replicates with signal
Y52F S53Q G55L	60 µM	2 of 3
G55K R57Q T104K	no signal	0 of 3
Y32R G55S K65E	no signal	0 of 3

For reference, the parent read 4.4 nM as the reference entry and 13 µM (one replicate of three) as a member of this library.
Nonspecific signal, from three strains lacking the peptide, appeared in 15% of pairings of library AAYL49, centred on 11 µM (5% of these signals below 680 nM); values are not corrected for it.